Experiment: physchem

Cc1nc2n(c(=O)c1CCN1CCC(c3noc4cc(F)ccc34)CC1)CCCC2 [RISPERIDONE]
pKa: 3.16
